The experiment addresses Transient receptor potential cation channel subfamily V member 1 (Rattus norvegicus, UniProt O35433). Description: Capsaicin Antagonist Assay.

The chains behind the UniProt entries cited, without tags or fusion partners.
UniProt O35433, whole entry: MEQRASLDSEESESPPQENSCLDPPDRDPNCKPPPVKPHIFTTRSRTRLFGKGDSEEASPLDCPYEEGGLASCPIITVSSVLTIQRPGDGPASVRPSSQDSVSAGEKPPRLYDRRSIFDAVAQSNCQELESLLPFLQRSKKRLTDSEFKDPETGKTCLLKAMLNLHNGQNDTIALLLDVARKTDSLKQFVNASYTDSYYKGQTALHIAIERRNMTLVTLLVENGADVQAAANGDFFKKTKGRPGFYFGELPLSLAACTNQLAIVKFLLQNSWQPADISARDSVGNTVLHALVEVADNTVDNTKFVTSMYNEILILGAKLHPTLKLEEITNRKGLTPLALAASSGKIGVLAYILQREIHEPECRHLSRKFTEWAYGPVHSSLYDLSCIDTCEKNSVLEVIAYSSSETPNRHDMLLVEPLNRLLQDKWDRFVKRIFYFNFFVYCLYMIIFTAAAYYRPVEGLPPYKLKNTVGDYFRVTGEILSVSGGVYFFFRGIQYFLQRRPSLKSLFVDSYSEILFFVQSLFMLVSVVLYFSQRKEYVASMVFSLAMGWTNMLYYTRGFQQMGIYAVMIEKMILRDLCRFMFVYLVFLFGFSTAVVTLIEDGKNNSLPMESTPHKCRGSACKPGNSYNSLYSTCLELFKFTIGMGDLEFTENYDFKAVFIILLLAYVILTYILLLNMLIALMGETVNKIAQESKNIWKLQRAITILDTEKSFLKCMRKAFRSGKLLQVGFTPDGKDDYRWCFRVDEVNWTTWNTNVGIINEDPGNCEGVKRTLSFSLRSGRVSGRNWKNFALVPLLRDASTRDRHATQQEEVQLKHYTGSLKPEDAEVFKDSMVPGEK

In BindingDB's records for doi:10.1021/jm070189q (Amgen, 2007) one finds IC50 data, which are given here for one molecule.

Turning to `CC(C)(C)c1ccc(/C=C\C(=O)Nc2ccc3c(c2)OCCO3)cc1` [AMG9810], the IC50 was 350 nM. The IC50 (pH 7.4, 22 °C) is 79 nM.
